Earlier results as cited in PMC9303331, “Novel agonist and antagonist radioligands for the GLP‐2 receptor. Useful tools for studies of basic GLP‐2 receptor pharmacology” (British Journal of Pharmacology, 2022).

Tested on: dipeptidyl peptidase‐4 (DPP‐4)
Details: ref Jeppesen et al., 2001; cited from earlier work

teduglutide
resistance to DPP‐4: DPP‐4 resistant
